In patent US20040204474A1, “Carvedilol-lipophilic solutions” (priority 2000, published 2004):

Columns and labels:
[1] = solubility of carvedilol in adjuvants and solvents with lipophilic character; type: physicochemical
[2] = gastrointestinal resorption after peroral administration; type: in vivo; conditions: passage through the gastrointestinal tract

COc1ccccc1OCCNCC(O)COc1cccc2[nH]c3ccccc3c12 (centres unmarked) [carvedilol, 1-(4-carbazolyloxy)-3-[2-(2-methoxyphenoxy)ethyl-amino]-2-propanol]
dissolving properties of diethylene glycol monoethyl ether (Transcutol P) for carvedilol [1]: similarly good dissolving properties | resorption in ileum and colon relative to stomach [2]: only a fraction of the resorption in the stomach
